Organism: Mus musculus
Experiment: Protective index, ratio of TD50 for BALB/c mouse by rotarod test to ED50 for BALB/c mouse by maximal electroshock seizure test
Type: functional

## NC(=O)N1c2ccccc2C=Cc2ccccc21 [CARBAMAZEPINE]
  Ratio TD50/ED50: 8.1

— ChEMBL document CHEMBL2424629, “Structure-based design, synthesis, and anticonvulsant activity of isatin-1-N-phenylacetamide derivatives” (Med Chem Res, 2013)
